Chains of the proteins cited; added tags and fusions are not shown.
UniProt P11802, whole entry: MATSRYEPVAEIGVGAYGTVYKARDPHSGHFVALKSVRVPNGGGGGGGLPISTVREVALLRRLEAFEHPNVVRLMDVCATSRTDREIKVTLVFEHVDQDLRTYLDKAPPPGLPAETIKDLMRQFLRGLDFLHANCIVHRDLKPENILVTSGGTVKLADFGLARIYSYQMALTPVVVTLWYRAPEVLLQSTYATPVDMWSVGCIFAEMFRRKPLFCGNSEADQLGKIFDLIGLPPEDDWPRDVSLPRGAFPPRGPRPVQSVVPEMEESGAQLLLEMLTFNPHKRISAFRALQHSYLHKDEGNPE
UniProt P30281, whole entry partner: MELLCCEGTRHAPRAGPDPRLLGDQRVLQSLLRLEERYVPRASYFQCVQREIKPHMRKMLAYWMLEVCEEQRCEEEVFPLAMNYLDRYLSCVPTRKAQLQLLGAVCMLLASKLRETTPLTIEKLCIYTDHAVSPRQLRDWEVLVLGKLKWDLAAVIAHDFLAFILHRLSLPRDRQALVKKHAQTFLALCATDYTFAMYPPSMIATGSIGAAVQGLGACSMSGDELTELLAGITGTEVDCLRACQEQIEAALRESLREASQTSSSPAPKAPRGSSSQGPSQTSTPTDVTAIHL

In patent US10124004B2, “Pyrido[3,4-d]pyrimidine derivative and pharmaceutically acceptable salt thereof” (Teijin Pharma Limited, priority 2015, dated 2018):

Tests used:
CDK4/cyclin D3 = CDK4/cyclin D3 (Homo sapiens, UniProt P11802); test: Human CDK4/cyclin D3 inhibitory activity (QS S Assist CDK4/Cyclin D3_FP Kit, IMAP fluorescence polarization); conditions: read-out: CDK4 Activity symbol
Method: Human CDK4/Cyclin D3 Inhibitory Activity
(§1) Each compound was analyzed for CDK4/cyclin D3 inhibitory activity with an assay kit (QS S Assist CDK4/Cyclin D3_FP Kit, available from Carna Biosciences, Inc.). This assay kit determines kinase activity on the basis of the IMAP technology by Molecular Devices. Specifically, the kinase activity is determined through quantification of a variation in fluorescent polarization caused by binding of a kinase-phosphorylated fluorescent substance to an IMAP-binding reagent.
Each solution was prepared with the 10× assay buffer attached to the kit or a separately prepared assay buffer having the same composition as the assay buffer attached to the kit. An assay buffer was prepared by 10-fold dilution of the 10× assay buffer with distilled water. The assay buffer contains 20 mM HEPES (pH 7.4), 0.01% Tween20, and 2 mM dithiothreitol. A test compound solution was prepared by dilution of the test compound with dimethyl sulfoxide (DMSO) to a concentration 100 times higher than the final concentration and then 25-fold dilution with the assay buffer to a concentration four times higher than the final concentration. An ATP/substrate/Metal solution was prepared by five-fold dilution of the 5×ATP/substrate/Metal solution attached to the kit with the assay buffer. An enzyme solution was prepared by dilution of the CDK4/cyclin D3 attached to the kit with the assay buffer to a concentration twice higher than the final concentration (final concentration of CDK4/cyclin D3:12.5 to 25 ng/well). A detection reagent was prepared by five-fold dilution of each of 5× IMAP-binding buffer A and 5×IMAP-binding buffer B with distilled water, mixing of IMAP-binding buffer A with IMAP-binding buffer B at a ratio of 85:15, and 400-fold dilution of the IMAP-binding reagent with the mixed buffer.
The test compound solution (5 μL/well) and the ATP/substrate/Metal solution (5 μL/well) were added to a 384-well plate, and the enzyme solution or the assay buffer (10 μL/well) was added to the plate (total amount of the reaction mixture: 20 μL/well) for initiation of enzymatic reaction. […] Subsequently, fluorescent polarization was determined with a microplate reader at an excitation wavelength of 485 nm and an emission wavelength of 535 nm.
(§2) The percent inhibition of enzyme activity was calculated for each test compound (note: enzyme activity=100% in the case of addition of the enzyme solution and addition of DMSO instead of the test compound solution, whereas enzyme activity=0% in the case of addition of the assay buffer instead of the enzyme solution, and addition of DMSO instead of the test compound solution). […]

CDK2/cyclin A2 = CDK2/cyclin A2 (Homo sapiens, UniProt P24941); test: Human CDK2/cyclin A2 inhibitory activity (QS S Assist CDK2/Cyclin A2_FP Kit, IMAP fluorescence polarization); conditions: read-out: CDK2 Activity symbol
Method: Human CDK2/Cyclin A^2 Inhibitory Activity
as §1, with “CDK2/cyclin A2” for “CDK4/cyclin D3”, “CDK2/Cyclin A2_FP” for “CDK4/Cyclin D3_FP”
An assay buffer was prepared by 10-fold dilution of the 10× assay buffer attached to the kit with distilled water, and each solution was prepared with the assay buffer. The assay buffer contained 20 mM HEPES (pH 7.4), 0.01% Tween 20, and 2 mM dithiothreitol. A test compound solution was prepared by dilution of the test compound with dimethyl sulfoxide (DMSO) to a concentration 100 times higher than the final concentration and then 25-fold dilution with the assay buffer to a concentration four times higher than the final concentration. An ATP/substrate/Metal solution was prepared by five-fold dilution of the 5×ATP/substrate/Metal solution attached to the kit with the assay buffer. An enzyme solution was prepared by dilution of the CDK2/cyclin A2 attached to the kit with the assay buffer to a concentration twice higher than the final concentration (final concentration of CDK2/cyclin A2: 2.5 ng/well). A detection reagent was prepared by five-fold dilution of 5×IMAP-binding buffer A with distilled water and 400-fold dilution of the IMAP-binding reagent with the diluted buffer.
The test compound solution (5 μL/well) and the ATP/substrate/Metal solution (5 μL/well) were added to a 384-well plate, and the enzyme solution or the assay buffer (10 μL/well) was added to the plate (total amount of the reaction mixture: 20 μL/well) for initiation of enzymatic reaction. […] The reaction was performed at room temperature for 60 minutes, and the detection reagent (60 μL/well) was then added to the plate, followed by further reaction for 30 minutes at room temperature under light shielding conditions. Subsequently, fluorescent polarization was determined with a microplate reader at an excitation wavelength of 485 nm and an emission wavelength of 535 nm.
as §2, with “enzyme solution” for “enzyme solution,”, “solution). The percent inhibition of enzyme activity was fitted to a dose-response curve, to determine a 50% inhibitory concentration against CDK2/cyclin A2.” for “solution).”

[1] = Human CDK4/cyclin D3 inhibitory activity
[2] = Human CDK2/cyclin A2 inhibitory activity
[3] = 50% inhibitory concentration against CDK4/cyclin D3, given as class symbol
[4] = 50% inhibitory concentration against CDK2/cyclin A2, given as class symbol

Row | SMILES | IC50 (CDK4/cyclin D3; [1]) | IC50 (CDK2/cyclin A2; [2]) | IC50 (CDK4/cyclin D3; [3]) | IC50 (CDK2/cyclin A2; [4])
1 | CO[C@H](C)c1cc2cnc(Nc3ccc(CN4CCNCC4)cn3)nc2c(N[C@H]2CCOC2)n1 | < 0.01 µM | > 0.1 µM |  | 
2 | CCN(CC)Cc1ccc(Nc2ncc3cc([C@@H](C)O)nc(NC(C)C)c3n2)nc1 |  |  | < 0.01 µM | > 0.1 µM
3 | CC(O)c1cc2cnc(Nc3ccc(N4CCNCC4)cn3)nc2c(NC2COC2)n1 (centres unmarked) | > 0.1 µM | > 0.1 µM |  | 
4 | C[C@@H](O)c1cc2cnc(Nc3ccc(CN4CCC(O)CC4)cn3)nc2c(NCC2CC2)n1 |  |  | < 0.01 µM | > 0.1 µM

Where two headings read alike, the source gives them in different places.
